Chains of the proteins cited; added tags and fusions are not shown. Lines headed by an entry give the natural chain unless they say otherwise; changes in a name come on top.
UniProt P50052: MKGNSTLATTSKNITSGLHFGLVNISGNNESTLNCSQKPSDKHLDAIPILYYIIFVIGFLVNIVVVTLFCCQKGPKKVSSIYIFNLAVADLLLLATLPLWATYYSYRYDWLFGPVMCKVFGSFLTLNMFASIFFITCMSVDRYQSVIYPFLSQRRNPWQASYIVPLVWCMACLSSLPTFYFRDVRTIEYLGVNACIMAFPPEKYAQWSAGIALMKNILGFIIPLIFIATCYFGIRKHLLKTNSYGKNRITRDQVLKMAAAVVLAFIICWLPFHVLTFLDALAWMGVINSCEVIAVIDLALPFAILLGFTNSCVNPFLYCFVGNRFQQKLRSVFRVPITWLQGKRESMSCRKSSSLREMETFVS

According to ChEMBL document CHEMBL1127303, “Triazolinone biphenylsulfonamides as angiotensin II receptor antagonists with high affinity for both the AT1 and AT2 subtypes” (J Med Chem, 1994):

Target: Angiotensin II receptor (Homo sapiens) (UniProt P30556+P50052)
Assay: Ratio of Ki value of AT2/AT1 receptor was determined
Format: protein assay

Ratio: 17
SMILES: CCCCc1nc2ccc(NC(=O)NC3CCCCC3)cc2n1Cc1ccc(-c2ccccc2C(=O)O)cc1
